Test results as given in PubChem BioAssay AID624172 (National Center for Advancing Translational Sciences (NCATS), 2012).
This is a selection; strong and weak results do not stand in their true shares. Active and inactive are the calls of the source. The call rests on the fitted dose curve; in most records, active means well fitted activation curve with a large enough effect; inconclusive means small, poorly fitted or top-dose-only effect; inactive means no such curve, though single readings can be large or run the other way.
Further: % of control where 0% means no effect.

Chains of the proteins cited; added tags and fusions are not shown. Lines headed by an entry give the natural chain unless they say otherwise; changes in a name come on top.
UniProt P43220, whole entry, stated change not applied: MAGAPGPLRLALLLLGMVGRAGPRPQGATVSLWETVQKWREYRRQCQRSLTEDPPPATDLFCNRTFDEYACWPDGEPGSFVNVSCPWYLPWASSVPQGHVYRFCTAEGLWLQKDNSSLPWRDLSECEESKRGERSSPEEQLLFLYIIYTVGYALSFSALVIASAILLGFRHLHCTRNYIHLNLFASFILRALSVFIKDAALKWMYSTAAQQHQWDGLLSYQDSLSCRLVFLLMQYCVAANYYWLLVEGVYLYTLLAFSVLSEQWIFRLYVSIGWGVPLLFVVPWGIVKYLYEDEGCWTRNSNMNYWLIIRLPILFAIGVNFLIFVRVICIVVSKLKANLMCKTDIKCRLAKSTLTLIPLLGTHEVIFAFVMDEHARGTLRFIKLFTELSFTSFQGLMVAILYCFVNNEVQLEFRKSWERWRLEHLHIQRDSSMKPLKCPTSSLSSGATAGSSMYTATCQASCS

The compounds below were run against Glucagon-like peptide 1 receptor (Homo sapiens) (UniProt P43220) (assay: qHTS of GLP-1 Receptor Agonists). Conditions: HEK293 GLP-1R CRE-luciferase, luminescence, 4-6 h, cells express a hypersensitive GLP-1R form; at 45.6 µM (top of the series).
Description: The overall goal of this project was to develop a novel assay for discovering small molecule ligands for class B1 G protein-coupled receptors (GPCRs). Very few agonists (or inverse agonists) with generally weak activity for this entire group of physiologically important receptors are known to date. To establish proof-of-principle that this critical bottleneck can be overcome with a suitable screening approach, our studies focused on the class B1 receptor for glucagon-like peptide-1 (GLP-1R), a potential therapeutic target for diabetes and neurodegenerative disease.
The assay was developed in a "mix and measure" format using a cell-based functional readout. Toward this goal, stably transfected HEK293 cell clones were established that co-express (i) a cAMP-responsive luciferase reporter gene, and (ii) GLP-1Rs that upon ligand interaction either stimulate (agonists) or inhibit (inverse agonists) luciferase activity. In different cell lines to be used for screening, expressed GLP-1Rs are specifically optimized for high sensitivity detection of either weak agonists (hypersensitive receptor) or inverse agonists (constitutively active receptor mutant). In addition, control cell lines were developed that express either the cAMP-responsive reporter gene without recombinant GLP-1Rs (enabling initial exclusion of GLP-1R independent effects of candidate probes), or the reporter gene together with wild type GLP-1Rs (for confirmation of probe activity at this receptor), or the reporter gene in combination with the constitutively active orphan receptor GPR119 (enabling initial exclusion of GLP-1R independent inhibitory effects of candidate inverse agonists).
To that end, this assay was optimized for 1536-well format and screened against the MLSMR.
NIH Molecular Libraries Probe Production Network [MLPCN]
NIH Chemical Genomics Center [NCGC]
PI Name: Martin Beinborn, Tufts Medical Center
In a white solid 1536-well plate, 6 uL of cells are dispensed in DMEM without phenol red, 10% Nu serum, and 1% pen-strep medium. The plates are then incubated for 12 hours at 37 deg C at 5% CO2 before 23 nL of compounds are added. After a 4-6 hr incubation at37 deg C and 5% CO2, 3 uL of detection reagent are added and after a 12 min incubation at RT, a luminescent read is obtained on the ViewLux.
With `O=C(NCC1(N2CCCCC2)CCCCC1)c1ccc(OC(F)F)cc1` the activation was inactive: 5.62%.
With `CC(C)(C)n1nnnc1C(c1ccccc1OC(F)(F)F)N1CCC(n2c(=O)[nH]c3ccccc32)CC1` (stereo not given) the activation was inactive: -4.84%.
For `O=c1[nH]c2ccccc2n1C1CCN(C(c2ccccc2OC(F)(F)F)c2nnnn2C2CCCC2)CC1` (stereo not given), the activation was inactive: -2.45%.
`N#CC1(Nc2ccccc2)CCN(CCc2ccccc2)CC1` was tested, and the activation was inactive: -14.6%.
For `CCN1CCC(Nc2ccc(Cl)cc2)CC1`, the activation was inactive: -7.86%.
With `CCOc1ccc(C(=O)NCC2(N3CCOCC3)CCCCC2)cc1` the activation was inactive: -5.2%.
`O=C(NCC1(N2CCCCC2)CCCCC1)c1cccc([N+](=O)[O-])c1` was tested, and the activation was inactive: 7.79%.
In the case of `CSc1ccc(C(=O)NCC2(N3CCOCC3)CCCCC2)cc1`, the activation is reported as inactive: 14.7%.
In the case of `O=[N+]([O-])c1cc([N+](=O)[O-])c(NCC2CCS(=O)(=O)C2)c([N+](=O)[O-])c1` (stereo not given), the activation is reported as inactive: -6.14%.
In the case of `O=C(NCC1(N2CCCCC2)CCCCC1)c1cccc(C(F)(F)F)c1`, the activation is reported as inactive: 7.44%.
With `COc1cc(C(=O)NCC2(N3CCCCC3)CCCCC2)ccc1OC(F)F` the activation was inactive: 9.83%.
For `O=C(NCC1(N2CCOCC2)CCCCC1)c1cc(=O)[nH]c2ccccc12`, the activation was inactive: -0.257%.
`CN1CCN(CCOC(=O)C(O)(c2ccccc2)c2ccccc2)CC1` was tested, and the activation was inactive: -6.88%.
`COc1ccc(NC2CCN(C(=O)OC(C)(C)C)CC2)cc1` was tested, and the activation was inactive: 6.3%.
`CC(C)c1ccc(C(=O)NCC2(N3CCOCC3)CCCCC2)cc1` was tested, and the activation was inactive: 6.94%.
In the case of `CCCCn1nnnc1C(c1cccc2ccccc12)N1CCC(n2c(=O)[nH]c3ccccc32)CC1` (stereo not given), the activation is reported as inactive: -0.741%.
`CCCCn1nnnc1C(c1ccccc1OC(F)(F)F)N1CCC(n2c(=O)[nH]c3ccccc32)CC1` (stereo not given) was tested, and the activation was inactive: -8.76%.
`CC(C)c1ccc(NC2CCN(C(=O)OC(C)(C)C)CC2)cc1` was tested, and the activation was inactive: 8.73%.
In the case of `O=[N+]([O-])c1cc([N+](=O)[O-])c(OC2CCCCC2O)c([N+](=O)[O-])c1` (stereo not given), the activation is reported as inactive: 14.8%.
With `CN(C)c1cccc(C(=O)NCC2(N3CCCCC3)CCCCC2)c1` the activation was inactive: -1.06%.
For `COc1ccc(CN(CCCl)CCCl)cc1Cl`, the activation was inactive: 6.73%.
For `O=C(NCC1(N2CCOCC2)CCCCC1)c1cc(F)c(F)cc1Cl`, the activation was inactive: 3.56%.
In the case of `CCC(c1nnnn1C(C)(C)C)N1CCC(n2c(=O)[nH]c3ccccc32)CC1` (stereo not given), the activation is reported as inactive: -1.33%.
In the case of `COc1cc(OC)c(C(=O)NCC2(N(C)C)CCCCC2)cc1OC`, the activation is reported as inactive: 8.34%.
For `CCCCn1nnnc1C(c1ccnc2ccccc12)N1CCC(n2c(=O)[nH]c3ccccc32)CC1` (stereo not given), the activation was inactive: 12.1%.
